This note sets out measurements from patent US9416348B2, “Hepatocyte-like cells and uses thereof” (priority 2010, dated 2016).

The test system of one data set is Primary hepatocyte. Particulars: mouse, 3 h, 100 μM.
In another data set the test system is TTF. Particulars: mouse, 3 h, 200 μM. Here is the method: To determine Alb secretion, TTFs transduced with three factors were cultured in the medium without phenol red. Culture supernatant was collected 24 h after medium change. The amount of Alb in the supernatant was determined by the mouse albumin ELISA kit (BETHYL LABORATORY) according to the manufacturer's instructions. […] The supernatants were collected for measurement of indicated productions by LC-MS/MS (AGILENT 1200 HPLC and ABI 4000 mass-spectrometer). Freshly isolated hepatocytes were used as a positive control. Total cell protein amount was used to normalize the data.
Metabolites of these chemicals were measured by liquid chromatography-tandem mass spectrometry (LC/MS/MS) according to each standard curve.

Regarding `O=C(O)Cc1ccccc1Nc1c(Cl)cccc1Cl` [Diclofenac, diclofenac], the “4′-OH-Diclotenac” value in the data set with Primary hepatocyte is given as 785.6 ± 77.9 pmol/min/mg protein; with TTF, 131.7 ± 28.5 pmol/min/mg protein.
